# Reported water solubility values for industrial, environmental and drug-like chemicals

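The numbers are reported measurements, compiled and curated for the OPERA QSAR suite. One number stands for a compound and property, with no spread given. Conditions of the individual experiments are not part of the data. A value may pool stereoisomers or salt forms, and the file does not say which form was measured. Unmarked limits or estimates from the upstream databases cannot be ruled out.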

Water solubility is log10 of mol/L, nominally at 25 °C; higher is more soluble. "n/a" marks a cell with nothing listed here.

| log S (log10 mol/L) | structure (SMILES) | name |
|---|---|---|
| -2.323 | O=C(OCC1CCCO1)c1ccccc1 (stereo not given) | 2-Furanmethanol, tetrahydro-, benzoate |
| -6.86 | CNc1ccc(NC)c2c1C(=O)c1ccccc1C2=O | n/a |
| -6.058 | CCCCCCCCCCCCCCCCCCSSCCCCCCCCCCCCCCCCCC | Disulfide, dioctadecyl |
| -2.319 | CCN(CC)CCOC(=O)c1ccc(N)cc1Cl | Chloroprocaine |
| -6.766 | CCCCCCCCCc1ccccc1 | 1-Phenylnonane |
| -1.675 | CC(=O)Nc1ccc(F)cc1 | 4-Fluoroacetanilide |
| -3.287 | CC(C)COC(=O)C(C)Oc1ccc(Oc2ccc(Cl)cc2)cc1 (stereo not given) | Clofop-isobutyl |
| -2.594 | NS(=O)(=O)c1cc2c(s1)SCCC2O (stereo not given) | n/a |
| -1.539 | CCOC(=O)Cn1cnc2c1c(=O)n(C)c(=O)n2C | n/a |
| -8.349 | CCCCCCCCCCCCCCCCCCCCCC(=O)OCC(CO)(CO)COC(=O)CCCCCCCCCCCCCCCCCCCCC | 2,2-Bis(hydroxymethyl)propane-1,3-diyl didocosanoate |
| -3.009 | O=C(O)c1cc(-n2nc3ccccc3n2)ccc1O | 5-(2H-Benzotriazol-2-yl)-salicylic acid |
| -1.514 | COC(=O)/C=C(/C)C(=O)OC | Dimethyl methylmaleate |
| 0.942 | CC(=NO)C(=O)O | 2-(Hydroxyimino)propanoic acid |
| -6.733 | CCCCCCCCC(=O)OCC(CC)CCCC (stereo not given) | Nonanoic acid, 2-ethylhexyl ester |
| -0.757 | C/C=C(/Cl)C(=O)O | (E)-2-Chloro-2-butenoic acid |
| -4.084 | C[C@@H]1C[C@H]2[C@@H]3CCC4=CC(=O)C=C[C@]4(C)[C@@]3(F)[C@@H](O)C[C@]2(C)[C@H]1C(=O)CO | Desoximetasone |
| -0.94 | O=S(=O)([O-])[O-].[NH3+]c1nc(NC2CC2)c2ncn(C3C=CC(CO)C3)c2n1.[NH3+]c1nc(NC2CC2)c2ncn(C3C=CC(CO)C3)c2n1 (stereo not given) | Abacavir sulfate |
| -3.01 | CCOC(=O)/C(=C\c1ccc(Cl)cc1)N=CO | Ethyl 2-formamido (4-chlorophenyl) acrylate |
| -7.033 | CCCCCCC(CCCC)COC(=O)c1ccccc1O (stereo not given) | 2-Butyloctyl 2-hydroxybenzoate |
| -2.351 | O=C(O)C1c2ccccc2Cc2ccccc21 | n/a |
| -3.46 | Ic1[nH]c(I)c(I)c1I | Iodol [USP] |
| -6.25 | CO[C@H]1C[C@H](O[C@@H]2C(C)=CC[C@@H]3C[C@@H](C[C@]4(CC[C@H](C)[C@@H](C5CCCCC5)O4)O3)OC(=O)[C@@H]3C=C(C)/C(=N/O)[C@H]4OCC(=CC=C[C@@H]2C)[C@]43O)O[C@@H](C)[C@@H]1O | Selamectin |
| -2.255 | CC1(C)S[C@@H]2[C@H](NC(=O)C3(N)CCCCC3)C(=O)N2[C@H]1C(=O)O | Cyclacillin |
| -3.59 | Nc1cnc2ncnc(N)c2n1 | 4,6-Pteridinediamine |
| -3.55 | C[C@]12CC[C@H]3[C@@H](CCC4=CC(=O)CC[C@@]43C)[C@@H]1CC[C@@H]2C(=O)CO | 21-Hydroxyprogesterone |
| -4.056 | Cc1ccc(Cl)cc1Cl | 2,4-Dichlorotoluene |
| -2.27 | CNC(=O)Nc1ccc(OC)c(Cl)c1 | Urea, N-(3-chloro-4-methoxyphenyl)-N'-methyl- |
| -5.495 | COc1cc(N=Nc2c(Br)cc([N+](=O)[O-])cc2[N+](=O)[O-])c(NC(C)=O)cc1N(CCOC(C)=O)CCOC(C)=O | C.I. Disperse Blue 79:1 |
| -2.742 | C.O=C(O)[C@H]1c2ccccc2[C@H](C(=O)O)c2ccccc21 | n/a |
| -0.41 | O=C(O)[C@H](O)[C@@H](O)CO | Threonate |
| -3.678 | O=c1[nH]c2[nH]cnc(=O)c2[nH]c1=O | 4,6,7-Pteridinetriol |
| -2.468 | Nc1nc(=O)n(-c2ccccc2)[nH]1 | 5-Amino-2-phenyl-1,2-dihydro-3H-1,2,4-triazol-3-one |
| -1.932 | COc1ccc(N)cc1Cl | 2-Chloro-4-anisidine |
| -3.301 | CC1(C)O[C@H]2O[C@H]([C@H]3COC(C)(C)O3)[C@H](OC(=O)c3ccccc3)[C@H]2O1 | n/a |
| -2.492 | NC(=O)c1cc(=O)[nH]c(=O)[nH]1 | 2,6-dioxo-1,2,3,6-tetrahydropyrimidine-4-carboxamide |
| 0.155 | OCC(Cl)Cl | 2,2-Dichloroethanol |

From the experimental data distributed with OPERA 2.9.